Chains of the proteins cited; added tags and fusions are not shown. Lines headed by an entry give the natural chain unless they say otherwise; changes in a name come on top.
UniProt P16610, whole entry: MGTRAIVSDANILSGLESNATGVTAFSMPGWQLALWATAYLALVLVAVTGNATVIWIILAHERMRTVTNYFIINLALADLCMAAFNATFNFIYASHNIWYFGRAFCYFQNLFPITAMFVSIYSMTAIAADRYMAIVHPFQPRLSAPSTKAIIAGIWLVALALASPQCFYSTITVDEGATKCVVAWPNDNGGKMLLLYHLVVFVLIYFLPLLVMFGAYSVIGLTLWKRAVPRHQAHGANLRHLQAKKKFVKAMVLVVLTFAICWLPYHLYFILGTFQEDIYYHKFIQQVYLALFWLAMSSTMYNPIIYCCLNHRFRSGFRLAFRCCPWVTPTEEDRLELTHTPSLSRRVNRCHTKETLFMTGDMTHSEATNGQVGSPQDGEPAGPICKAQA
UniProt P20366: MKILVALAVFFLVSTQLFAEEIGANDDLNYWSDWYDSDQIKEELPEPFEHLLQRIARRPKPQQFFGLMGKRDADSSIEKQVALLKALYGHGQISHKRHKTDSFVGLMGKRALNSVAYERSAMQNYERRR

In patent publication US20060275828A1 (CENTRE NATIONAL DE LA RECHERCHE SCIENTIFIQUE, published 2006):

Biological target: T1, wild-type rat NK2R receptor of tachykinins (construct pCEP4-NK2R), expressed on HEK 293 cells (rat, UniProt P16610 1-390)
T1 construct: whole, on cells; Stably expressed in HEK 293 cells; also called NK2R-WT; NK2R WT
Experiment: displacement of 3H SR 48968 on HEK 293 cells expressing NK2R-WT, filtration (FIG. 8a)
Protocol: The incubation is carried out for one hour at 4° C. Filtration is carried out at the end of incubation, as described in 3b).

Ki: 3.03 nM
Binder: HKTDSFVGLM (peptide, UniProt P20366 98-107, looked up, mature; also called NKA; substance K) [neurokinin A]
